Data on 1 substance can be found in patent publication US9347884B2, “Microfluidic device with direct sample heating via electromagnetic radiation” (UCL BUSINESS PLC, priority 2009, dated 2016).

Read-outs that look alike come from different tables or passages of the source.

For series [1] the following is noted: Capillary method, urea. On the procedure: Samples were measured and averaged for 100 laser pulses. […] Error bars shown are standard deviations.
The conditions of series [2]: 0.5 mg ml^−1 BSA, flow rate 10 μl/min, capillary.
The conditions of series [3]: Microplate method; urea; from Aucamp 2005; cited from earlier work.

In series [1], bovine serum albumin [BSA] had a mG of 1.9 ± 0.2 kcal mol^−1 M^−1 and a ΔGH2O of 7.0 ± 0.8 kcal/mol. Moreover, the “C1/2 (transition mid-point)” value in series [1] (7.14 μM BSA, 50 mM Tris.HCl pH 7.2, 22° C.) stood at 3.7 ± 0.2 M. Moreover, in series [2], the “mid-point of the transition (urea concentration)” value is on record as 4.5 M. Besides, in series [3], the “C1/2 (transition mid-point)” value is 3.6 ± 0.2 M, the mG is 1.2 ± 0.2 kcal mol^−1 M^−1 and the ΔGH2O is 4.4 ± 0.8 kcal/mol.
